Counter-ions that a name gives are not always drawn.
system: primary mouse embryonic fibroblasts (MEF); assay: not given; assay type: cell-based; details: NF-κB inhibitors with methamphetamine

| Structure (SMILES) | effect of methamphetamine on de novo ceramide (d18:1/16:0) biosynthesis |
| --- | --- |
| Cc1ccc(NCCCc2ccccc2)c(N)c1 [JSH-23] | able to inhibit |
| O=C1CCC(N2C(=O)c3ccccc3C2=O)C(=O)N1 (stereo not drawn) [thalidomide] | able to inhibit |
| Nc1ccc(O)c(C(=O)O)c1 [5′-aminosalicyclic acid] | able to inhibit |

system: primary mouse embryonic fibroblasts (MEF); assay: ROS production in MEF (CM-H2DCFDA); assay type: cell-based; details: drug alone (L-methamphetamine and 4-hydroxy-D-methamphetamine at 1 mM)

| Structure (SMILES) | ROS formation |
| --- | --- |
| CN[C@@H](C)Cc1ccc(O)cc1 | little or no effect |
| CN[C@@H](C)Cc1ccccc1.Cl [L-methamphetamine, L-methamphetamine hydrochloride] | little or no effect |
| CN[C@@H](C)Cc1ccccc1 [methamphetamine, S(+)-methylamphetamine HCl] | concentration-dependent increase |
